The record followed here is PMC12402003, “Synergy analysis of cyanidin-3-O-glucoside and catechin: absorption, transport and lipid metabolism effects” (Frontiers in Nutrition, 2025).

The chains behind the UniProt entries cited, without tags or fusion partners. Where a name states a change or a piece, a line headed by the entry shows the natural chain unless it says otherwise.
UniProt Q92887: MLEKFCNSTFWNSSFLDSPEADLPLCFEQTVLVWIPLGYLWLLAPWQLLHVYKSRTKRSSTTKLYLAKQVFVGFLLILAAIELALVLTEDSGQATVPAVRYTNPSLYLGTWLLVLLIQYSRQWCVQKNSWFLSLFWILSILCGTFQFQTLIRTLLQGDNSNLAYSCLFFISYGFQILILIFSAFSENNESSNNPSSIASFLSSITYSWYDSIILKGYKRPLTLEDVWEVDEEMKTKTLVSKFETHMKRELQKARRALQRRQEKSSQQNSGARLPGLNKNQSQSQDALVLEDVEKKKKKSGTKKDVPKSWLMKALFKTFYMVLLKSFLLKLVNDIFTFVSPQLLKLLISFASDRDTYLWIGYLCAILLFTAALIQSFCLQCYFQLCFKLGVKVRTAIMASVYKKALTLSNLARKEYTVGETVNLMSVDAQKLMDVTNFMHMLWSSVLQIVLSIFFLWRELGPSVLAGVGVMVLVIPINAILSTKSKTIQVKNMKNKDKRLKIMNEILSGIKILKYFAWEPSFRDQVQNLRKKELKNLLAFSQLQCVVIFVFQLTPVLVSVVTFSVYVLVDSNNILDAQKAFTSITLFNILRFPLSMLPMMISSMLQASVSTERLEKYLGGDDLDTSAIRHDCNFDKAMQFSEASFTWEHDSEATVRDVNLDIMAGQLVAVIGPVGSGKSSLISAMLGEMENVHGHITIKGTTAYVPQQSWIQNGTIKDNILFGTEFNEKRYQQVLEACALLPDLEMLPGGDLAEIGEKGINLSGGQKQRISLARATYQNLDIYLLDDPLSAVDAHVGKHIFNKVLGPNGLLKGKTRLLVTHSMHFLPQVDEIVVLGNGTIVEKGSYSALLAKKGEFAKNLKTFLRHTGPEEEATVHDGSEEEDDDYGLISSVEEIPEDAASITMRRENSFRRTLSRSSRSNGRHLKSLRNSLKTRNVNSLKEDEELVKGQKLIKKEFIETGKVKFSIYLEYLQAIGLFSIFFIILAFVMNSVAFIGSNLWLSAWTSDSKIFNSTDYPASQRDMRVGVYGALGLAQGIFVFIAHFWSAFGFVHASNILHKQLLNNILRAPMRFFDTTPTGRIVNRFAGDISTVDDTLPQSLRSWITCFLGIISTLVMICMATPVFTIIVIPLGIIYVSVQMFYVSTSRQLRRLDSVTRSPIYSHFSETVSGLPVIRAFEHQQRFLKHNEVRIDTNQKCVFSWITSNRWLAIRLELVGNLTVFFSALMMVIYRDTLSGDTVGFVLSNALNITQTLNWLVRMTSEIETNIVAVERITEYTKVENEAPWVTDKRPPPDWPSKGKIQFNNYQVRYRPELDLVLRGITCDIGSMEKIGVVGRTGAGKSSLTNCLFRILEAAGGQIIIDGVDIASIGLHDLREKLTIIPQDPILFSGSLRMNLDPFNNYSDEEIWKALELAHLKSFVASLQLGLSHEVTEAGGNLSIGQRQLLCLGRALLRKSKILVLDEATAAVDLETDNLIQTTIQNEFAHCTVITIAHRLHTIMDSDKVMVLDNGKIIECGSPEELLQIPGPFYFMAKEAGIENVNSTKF

In the data set the target is MRP2 (Homo sapiens, UniProt Q92887). In words: Bidirectional Caco-2 transport with probenecid (MRP inhibitor). To be noted: 50 μmol/L, 90 min, + Prob (probenecid 1 mM). As for the experimental part: Transport assay: The monolayers were pre-incubated at 37°C for 30–40 min with 5% CO2 in a pre-warmed media, which contained Hanks Balanced Salt solution (HBSS, BioWhittaker), HEPES buffer and D-glucose. For the transport of apical (AP) side to basolateral (BL) side, the media was removed after pre-incubation and 0.5 mL of polyphenols was added to the AP side. 1.5 mL of HBSS were added to the BL side. Then 200 μL of samples were taken from the BL side at 30, 60, 90, 120 and 150 min, respectively. The BA sample volumes removed were therewith replenished with same volumes of the HBSS solution. For the transport of BL to AP, polyphenols were added to BL and samples were taken from AP at a series of time points as above mentioned. The TEER was measured from the beginning to the end of the assay.
Caco-2 cells (1×10^5 cells/well) were cultured in 96-well plates for 24 h until differentiation, with a TEER value exceeding 400 Ω·cm^2. Bidirectional transport experiments from AP to BL or from BL to AP were performed as mentioned in the transport assay. The apparent permeability coefficients, cumulative release and initial concentrations and efflux rates were determined. In brief, the total transport time was set to 150 min. For AP to BL transport, 0.5 mL of polyphenols were added to AP with 1.5 mL of HBSS to the BL side. […]

For `O.Oc1cc(O)c2c(c1)O[C@H](c1ccc(O)c(O)c1)[C@@H](O)C2` [catechin], the “Papp (AP → BL)” value is on record as 3.15 ± 0.14 ×10^−5 cm /s.
